The values that follow are results of earlier work, collected in patent publication US5562894A, “Amino-acyl-type and catecholamine-type contrast agents for MRI” (Regents of the University of California, priority 1993, dated 1996).

The conditions of this data set: in vivo; cited from earlier work.

“albumin-(Gd-DTPA)n: contrast agent which remains largely intravascular”: the “distribution (in words)” value is reported as “remains largely intravascular”.
